Reference: ChEMBL document CHEMBL5523714, “Design, synthesis of ceramide 1-phosphate analogs and their affinity for cytosolic phospholipase A2 as evidenced by surface plasmon resonance” (Bioorg Med Chem Lett, 2024)

Biological target: T1, Cytosolic phospholipase A2 (Homo sapiens) (UniProt P47712)
T1 sequence (whole entry): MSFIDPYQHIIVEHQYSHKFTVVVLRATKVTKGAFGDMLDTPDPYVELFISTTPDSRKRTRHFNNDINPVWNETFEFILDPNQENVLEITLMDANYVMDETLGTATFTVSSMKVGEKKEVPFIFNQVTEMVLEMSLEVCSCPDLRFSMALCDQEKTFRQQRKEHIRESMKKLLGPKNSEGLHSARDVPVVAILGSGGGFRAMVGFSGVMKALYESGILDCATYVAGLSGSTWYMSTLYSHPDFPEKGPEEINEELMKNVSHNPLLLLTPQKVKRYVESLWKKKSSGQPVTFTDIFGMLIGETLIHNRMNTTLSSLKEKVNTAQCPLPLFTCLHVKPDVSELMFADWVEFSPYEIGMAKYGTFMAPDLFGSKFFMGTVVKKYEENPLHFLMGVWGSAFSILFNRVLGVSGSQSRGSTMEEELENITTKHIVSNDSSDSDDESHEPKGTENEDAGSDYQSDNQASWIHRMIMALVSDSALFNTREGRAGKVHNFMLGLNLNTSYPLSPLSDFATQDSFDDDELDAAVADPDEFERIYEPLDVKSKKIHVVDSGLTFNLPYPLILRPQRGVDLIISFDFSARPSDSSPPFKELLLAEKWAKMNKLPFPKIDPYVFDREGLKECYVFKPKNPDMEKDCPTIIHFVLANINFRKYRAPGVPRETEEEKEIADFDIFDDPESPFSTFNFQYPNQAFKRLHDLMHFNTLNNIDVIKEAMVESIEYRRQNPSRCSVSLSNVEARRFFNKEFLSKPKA
Conditions: filed as activator

- Ka: 0.6 10^6/M/s
Structure (SMILES): CCCCCCCCCCCCC/C=C/[C@@H](O)[C@H](COP(=O)(O)OC)NC(=O)CCCCCCCCCCCCCCC
